Target: BChE (Homo sapiens, UniProt P06276)
Test: BChE inhibition, butyrylthiocholine substrate, Ellman's reagent
Type: biochemical

By UniProt entry, the sequences of proteins in these tests, tags left out. Residues count along the entry.
UniProt P06276, 29-602: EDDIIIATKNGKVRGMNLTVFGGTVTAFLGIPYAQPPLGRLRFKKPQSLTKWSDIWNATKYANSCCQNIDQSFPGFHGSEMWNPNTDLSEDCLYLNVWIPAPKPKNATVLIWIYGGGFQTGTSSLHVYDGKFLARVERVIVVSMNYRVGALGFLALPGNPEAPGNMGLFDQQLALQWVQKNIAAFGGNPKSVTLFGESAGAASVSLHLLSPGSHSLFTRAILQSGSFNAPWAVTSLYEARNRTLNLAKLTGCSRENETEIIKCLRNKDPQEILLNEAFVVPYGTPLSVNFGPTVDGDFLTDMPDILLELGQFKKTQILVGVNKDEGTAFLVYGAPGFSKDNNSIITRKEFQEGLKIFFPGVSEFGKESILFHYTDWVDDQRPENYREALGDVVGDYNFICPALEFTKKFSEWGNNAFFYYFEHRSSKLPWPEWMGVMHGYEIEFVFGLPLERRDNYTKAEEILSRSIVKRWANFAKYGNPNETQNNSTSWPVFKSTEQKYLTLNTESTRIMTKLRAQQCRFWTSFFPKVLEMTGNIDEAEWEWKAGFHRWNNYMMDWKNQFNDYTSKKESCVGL

## CCN(C)C(=O)Oc1cccc([C@H](C)N(C)C)c1 [Rivastigmine, rivastigmine]
  IC50: 280 ± 110 µM

Source: article PMC3582710 (Chemico-biological interactions, 2012)
